The record followed here is ChEMBL document CHEMBL3714716, “Modulators of the relaxin receptor 1” (2015).

In this assay the target is T1, Relaxin receptor 1 (Homo sapiens) (UniProt Q9HBX9).
T1 sequence (whole entry): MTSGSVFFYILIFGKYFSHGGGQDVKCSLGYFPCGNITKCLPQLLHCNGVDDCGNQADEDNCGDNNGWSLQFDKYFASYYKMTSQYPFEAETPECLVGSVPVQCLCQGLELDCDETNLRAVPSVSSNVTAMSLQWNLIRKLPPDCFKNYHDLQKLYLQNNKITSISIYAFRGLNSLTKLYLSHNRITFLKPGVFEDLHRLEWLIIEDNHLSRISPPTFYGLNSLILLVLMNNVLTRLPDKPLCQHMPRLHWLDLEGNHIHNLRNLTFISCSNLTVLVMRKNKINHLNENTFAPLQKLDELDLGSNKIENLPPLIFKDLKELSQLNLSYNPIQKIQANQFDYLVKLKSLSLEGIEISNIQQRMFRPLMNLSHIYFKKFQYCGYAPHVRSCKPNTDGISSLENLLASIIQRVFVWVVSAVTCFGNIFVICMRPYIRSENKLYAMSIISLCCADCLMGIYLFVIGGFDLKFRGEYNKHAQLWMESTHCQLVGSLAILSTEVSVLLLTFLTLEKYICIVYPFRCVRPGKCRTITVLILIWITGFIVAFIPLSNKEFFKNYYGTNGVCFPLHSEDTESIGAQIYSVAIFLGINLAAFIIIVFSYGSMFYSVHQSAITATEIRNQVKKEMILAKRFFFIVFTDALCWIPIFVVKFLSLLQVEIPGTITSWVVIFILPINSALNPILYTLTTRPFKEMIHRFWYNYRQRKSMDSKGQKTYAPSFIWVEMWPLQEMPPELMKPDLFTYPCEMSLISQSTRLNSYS
Description: Agonist activity at RXFP1 receptor (unknown origin) expressed in HEK293 cells assessed as stimulation of cAMP production incubated for 30 mins by TR-FRET based HTRF assay relative to forskolin. The class given is functional, cell-based.

As for `CC(C)Oc1ccccc1C(=O)Nc1ccccc1C(=O)Nc1cccc(S(=O)(=O)C(F)(F)F)c1`, the %max is 98%.

For `CCOc1ccccc1-c1nc2ccccc2c2nc3ccc(C(F)(F)F)cc3n12`, the %max turned out to be 34%.
